Measurements taken from patent US20250242340A1, “SABRE CATALYSTS CONTAINING FLUORINATED CARBON CHAINS FOR DELIVERY OF METAL-FREE MRI CONTRAST AGENTS” (The United States of America, as represented by the …, priority 2022, published 2025).

Settings: 20 mM sodium [1-13C]pyruvate, 2.6 mM catalyst of Example 4, 40 mM DMSO, 0.4 μT, 0 °C, 110 PSI, 90 scc/m p-H2, 1.8 T NMR

13C signal enhancement ε: ~86500 fold | P13C (13C polarization): ~13.48%
SMILES: CC(=O)C(=O)O [[1-^13C]pyruvate, Sodium [1-^13C]-pyruvate]
